For two molecules, Ki results are on record in BindingDB's records for doi:10.1016/0024-3205(84)90540-x (Schering-Plough, 1984).

By UniProt entry, the sequences of proteins in these tests, tags left out.
UniProt P61169, whole entry: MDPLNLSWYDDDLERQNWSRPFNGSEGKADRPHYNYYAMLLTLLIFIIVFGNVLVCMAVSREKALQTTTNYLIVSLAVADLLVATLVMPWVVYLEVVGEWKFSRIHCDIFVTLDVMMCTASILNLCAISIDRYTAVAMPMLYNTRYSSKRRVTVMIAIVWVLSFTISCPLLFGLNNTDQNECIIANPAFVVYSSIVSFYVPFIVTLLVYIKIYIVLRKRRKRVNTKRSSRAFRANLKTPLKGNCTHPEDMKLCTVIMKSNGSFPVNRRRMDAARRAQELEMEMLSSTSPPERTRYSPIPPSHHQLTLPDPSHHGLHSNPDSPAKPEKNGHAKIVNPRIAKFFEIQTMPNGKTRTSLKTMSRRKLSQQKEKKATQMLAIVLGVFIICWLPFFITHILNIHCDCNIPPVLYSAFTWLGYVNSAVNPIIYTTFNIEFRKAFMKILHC

pKi: −log10 of the molar value.

For the assay, the target named is D(2) dopamine receptor (Rattus norvegicus, UniProt P61169).

Usually pKi stands for the Ki on a negative log10 scale, so that one unit is a factor of ten. Take `NCCc1c[nH]c2ccc(O)cc12` [[3H]-5-HT]: the negative logarithm of the Ki (pKi) is 5.78.
The molecule `CN1CCc2cccc3c2[C@H]1Cc1ccc(O)c(O)c1-3` [APOKYN] showed a pKi of 6.27.
